Experimental data from PMC4829425.

Chains of the proteins cited; added tags and fusions are not shown. Residues count along the entry.
UniProt P35968, 20-1356: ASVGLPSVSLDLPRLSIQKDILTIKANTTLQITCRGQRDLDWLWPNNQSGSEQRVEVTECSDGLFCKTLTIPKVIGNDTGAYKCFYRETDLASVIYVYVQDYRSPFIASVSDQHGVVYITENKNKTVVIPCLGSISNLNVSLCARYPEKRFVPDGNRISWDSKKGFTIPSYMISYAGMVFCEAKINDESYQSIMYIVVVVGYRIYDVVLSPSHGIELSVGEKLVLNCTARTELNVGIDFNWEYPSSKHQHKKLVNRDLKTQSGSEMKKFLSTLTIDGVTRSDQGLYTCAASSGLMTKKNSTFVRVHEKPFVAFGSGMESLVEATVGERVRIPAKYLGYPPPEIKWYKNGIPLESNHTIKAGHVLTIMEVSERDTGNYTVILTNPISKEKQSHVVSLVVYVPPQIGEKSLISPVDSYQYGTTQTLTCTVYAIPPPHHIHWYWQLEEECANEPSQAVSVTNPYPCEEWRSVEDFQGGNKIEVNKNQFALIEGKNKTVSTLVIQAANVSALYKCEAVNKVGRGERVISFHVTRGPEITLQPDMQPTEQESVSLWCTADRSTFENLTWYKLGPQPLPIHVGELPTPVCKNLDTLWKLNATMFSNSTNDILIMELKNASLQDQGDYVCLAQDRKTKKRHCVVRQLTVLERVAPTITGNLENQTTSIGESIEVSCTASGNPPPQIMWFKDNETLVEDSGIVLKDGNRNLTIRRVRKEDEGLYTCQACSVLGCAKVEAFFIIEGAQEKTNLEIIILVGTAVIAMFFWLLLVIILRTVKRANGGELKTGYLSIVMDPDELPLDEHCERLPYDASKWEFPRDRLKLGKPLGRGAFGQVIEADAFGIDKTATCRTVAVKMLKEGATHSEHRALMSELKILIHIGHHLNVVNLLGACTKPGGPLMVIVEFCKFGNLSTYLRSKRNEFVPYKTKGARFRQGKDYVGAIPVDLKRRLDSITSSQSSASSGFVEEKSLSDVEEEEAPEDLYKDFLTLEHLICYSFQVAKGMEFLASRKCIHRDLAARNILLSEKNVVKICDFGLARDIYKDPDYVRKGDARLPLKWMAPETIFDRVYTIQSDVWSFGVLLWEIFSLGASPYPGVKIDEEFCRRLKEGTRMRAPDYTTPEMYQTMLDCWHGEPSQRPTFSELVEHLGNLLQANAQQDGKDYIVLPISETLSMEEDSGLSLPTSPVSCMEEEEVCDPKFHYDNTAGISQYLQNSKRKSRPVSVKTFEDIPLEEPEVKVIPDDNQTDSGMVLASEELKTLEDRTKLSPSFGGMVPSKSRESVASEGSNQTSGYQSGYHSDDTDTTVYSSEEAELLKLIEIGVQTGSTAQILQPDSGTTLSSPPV

Columns and labels:
[1] = molecular target: VEGFR-2 EC+TM-(GGS)5-YFP or -mCherry (human) (UniProt P35968)
[2] = molecular target: full length wild-type human VEGFR-2 (human) (UniProt P35968)

Row | Substance | Intrinsic FRET of the EC+TM dimer (YFP/mCherry) with 3 ug/ml ligand; 0.61 without ligand [1] | phosphorylation of full-length VEGFR-2 (Tyr 1175, Western blot) with 3 ug/ml ligand against no ligand [2]
1 | human VEGF-A121 (ligand) | 0.45 | < 10 fold
2 | human VEGF-A165a (ligand) | 0.43 | < 10 fold
3 | human VEGF-A165b (ligand) | 0.42 | < 10 fold
